Data as given in patent US20210186880A1, “ORAL FORMULATIONS WITH INCREASED UPTAKE” (Brown University, priority 2018, published 2021).

Conditions: rat, in vivo

detection in red blood cells pellet: nothing was detected
Substance: poly(lactic acid) [PLA]
